Earlier results as cited in PMC10388327, “Dual Piperidine-Based Histamine H3 and Sigma-1 Receptor Ligands in the Treatment of Nociceptive and Neuropathic Pain” (Journal of Medicinal Chemistry, 2023).
pKi: −log10 of the molar value.

Target: H3R
Set-up: method as in PMID 30359639
Details: Figure 1, compounds evaluated in clinical trials; cited from earlier work

For `Clc1ccc(CCCOCCCN2CCCCC2)cc1` [Pitolisant], the pKi is listed as 8.62 to 9.00.
